Data reported in patent publication US8959984B2, “Proteome-wide quantification of small molecule binding to cellular target proteins” (priority 2007, dated 2015).

Amino acid sequences for entries named in this document (tags omitted). A change or cut given only in a name is not applied to a line headed by its entry.
UniProt P20248, whole entry: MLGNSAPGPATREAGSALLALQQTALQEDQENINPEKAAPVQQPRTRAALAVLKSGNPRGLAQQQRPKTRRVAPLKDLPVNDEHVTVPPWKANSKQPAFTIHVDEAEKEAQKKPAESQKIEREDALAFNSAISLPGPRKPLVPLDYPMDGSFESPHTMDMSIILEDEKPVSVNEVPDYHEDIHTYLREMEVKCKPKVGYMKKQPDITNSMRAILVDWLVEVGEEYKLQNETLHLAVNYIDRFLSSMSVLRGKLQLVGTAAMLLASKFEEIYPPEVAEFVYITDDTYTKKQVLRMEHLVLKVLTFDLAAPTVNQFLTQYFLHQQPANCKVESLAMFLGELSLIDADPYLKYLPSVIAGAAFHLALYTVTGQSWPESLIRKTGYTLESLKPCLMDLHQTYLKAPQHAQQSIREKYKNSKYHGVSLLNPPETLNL
UniProt Q13555: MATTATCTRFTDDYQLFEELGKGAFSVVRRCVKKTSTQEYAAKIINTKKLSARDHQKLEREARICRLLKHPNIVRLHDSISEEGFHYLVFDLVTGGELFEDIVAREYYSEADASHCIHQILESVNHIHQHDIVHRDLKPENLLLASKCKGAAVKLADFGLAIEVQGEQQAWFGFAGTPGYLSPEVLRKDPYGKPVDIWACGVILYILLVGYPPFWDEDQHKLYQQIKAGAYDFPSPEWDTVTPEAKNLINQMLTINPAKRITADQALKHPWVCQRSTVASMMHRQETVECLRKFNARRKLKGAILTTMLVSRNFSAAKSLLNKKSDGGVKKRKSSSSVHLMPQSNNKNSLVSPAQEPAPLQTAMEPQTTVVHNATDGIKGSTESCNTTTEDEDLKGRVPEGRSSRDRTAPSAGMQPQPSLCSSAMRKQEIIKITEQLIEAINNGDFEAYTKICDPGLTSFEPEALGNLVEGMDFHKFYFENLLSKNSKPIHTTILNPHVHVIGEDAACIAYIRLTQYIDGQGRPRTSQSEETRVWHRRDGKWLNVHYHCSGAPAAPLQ
UniProt Q9BVS4: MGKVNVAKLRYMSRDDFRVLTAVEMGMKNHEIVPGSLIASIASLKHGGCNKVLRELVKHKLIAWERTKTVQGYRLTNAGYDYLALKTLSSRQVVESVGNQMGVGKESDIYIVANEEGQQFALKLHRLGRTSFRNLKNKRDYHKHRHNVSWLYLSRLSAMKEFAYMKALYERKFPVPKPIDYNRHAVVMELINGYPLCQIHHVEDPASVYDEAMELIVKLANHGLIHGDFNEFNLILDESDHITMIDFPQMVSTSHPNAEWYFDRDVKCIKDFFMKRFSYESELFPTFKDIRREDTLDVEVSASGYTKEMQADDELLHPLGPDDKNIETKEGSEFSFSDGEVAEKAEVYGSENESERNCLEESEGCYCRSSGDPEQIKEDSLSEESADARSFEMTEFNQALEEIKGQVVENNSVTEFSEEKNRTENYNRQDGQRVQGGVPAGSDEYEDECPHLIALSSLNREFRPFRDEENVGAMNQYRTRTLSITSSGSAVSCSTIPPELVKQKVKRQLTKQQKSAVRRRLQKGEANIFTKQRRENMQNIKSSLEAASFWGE

Key:
Assay in all cases: Ki determination for immobilized VI16742: two consecutive incubations, control beads, ligand concentration and incubation time controls (Tables 7, 8)
Assay type in all cases: binding
[1] = biological target: T1, cellular target proteins in HeLa cell lysate (Homo sapiens, UniProt O15530); details: Ki (VI16742), PDK1 (PDPK1) IPI00002538
T1 sequence (O15530 1-556): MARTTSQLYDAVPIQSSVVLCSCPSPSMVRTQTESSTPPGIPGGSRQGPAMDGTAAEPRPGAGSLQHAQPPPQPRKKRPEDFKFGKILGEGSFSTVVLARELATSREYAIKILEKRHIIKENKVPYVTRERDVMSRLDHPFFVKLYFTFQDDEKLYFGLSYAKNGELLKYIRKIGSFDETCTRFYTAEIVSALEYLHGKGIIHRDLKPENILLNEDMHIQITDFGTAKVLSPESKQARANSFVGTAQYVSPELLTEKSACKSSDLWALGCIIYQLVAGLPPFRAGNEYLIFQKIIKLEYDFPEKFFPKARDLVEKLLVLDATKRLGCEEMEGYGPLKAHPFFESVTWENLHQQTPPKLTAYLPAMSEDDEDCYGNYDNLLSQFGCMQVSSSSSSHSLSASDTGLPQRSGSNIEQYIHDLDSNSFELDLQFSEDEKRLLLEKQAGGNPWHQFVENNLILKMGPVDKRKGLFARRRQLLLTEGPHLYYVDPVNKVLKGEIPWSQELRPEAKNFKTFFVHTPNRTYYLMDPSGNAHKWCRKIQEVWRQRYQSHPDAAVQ

[2] = biological target: cellular target proteins in HeLa cell lysate (Homo sapiens, UniProt P20248); details: Ki (VI16742), CCNA2 IPI00022865
[3] = biological target: cellular target proteins in HeLa cell lysate (Homo sapiens, UniProt Q13555); details: Ki (VI16742), CaMK2g (CAMK2G) IPI00172450
[4] = biological target: cellular target proteins in HeLa cell lysate (Homo sapiens, UniProt Q9BVS4); details: Ki (VI16742), RIOK2 IPI00306406
[5] = biological target: T2, cellular target proteins in HeLa cell lysate (Homo sapiens, UniProt Q9UHD2); details: Ki (VI16742), TBK1 IPI00293613
T2 sequence (Q9UHD2 1-729): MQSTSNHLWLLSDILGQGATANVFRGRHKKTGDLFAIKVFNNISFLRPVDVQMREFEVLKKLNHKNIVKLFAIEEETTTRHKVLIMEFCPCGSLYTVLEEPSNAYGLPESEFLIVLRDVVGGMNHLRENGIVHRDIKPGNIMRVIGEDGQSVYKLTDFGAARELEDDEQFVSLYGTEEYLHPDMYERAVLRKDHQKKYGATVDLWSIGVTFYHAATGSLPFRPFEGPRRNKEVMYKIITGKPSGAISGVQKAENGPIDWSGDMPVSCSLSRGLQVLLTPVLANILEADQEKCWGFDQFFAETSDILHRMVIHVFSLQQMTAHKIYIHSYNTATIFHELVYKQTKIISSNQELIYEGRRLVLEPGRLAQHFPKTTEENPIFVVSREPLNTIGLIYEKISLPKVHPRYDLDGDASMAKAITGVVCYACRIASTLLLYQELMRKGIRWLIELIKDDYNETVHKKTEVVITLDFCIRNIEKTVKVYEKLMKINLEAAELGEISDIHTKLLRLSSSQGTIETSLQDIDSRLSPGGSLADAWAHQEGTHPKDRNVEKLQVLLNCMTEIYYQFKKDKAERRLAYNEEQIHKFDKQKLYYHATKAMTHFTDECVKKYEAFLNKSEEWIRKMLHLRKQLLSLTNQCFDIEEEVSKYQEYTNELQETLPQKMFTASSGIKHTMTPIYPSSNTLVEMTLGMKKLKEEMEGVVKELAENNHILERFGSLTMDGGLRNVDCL

## CC(C)n1c(=O)ccc2cnc(Nc3ccc(OCCN)cc3)nc21 [V16742]
[1]
  Ki: 28.1 µM
[2]
  Ki: 11.8 µM
[3]
  Ki: 1.6 µM
[4]
  Ki: 48.3 µM
[5]
  Ki: 3.74 µM
